pIC50: −log10 of the molar value.
Molecular target: Histone-lysine N-methyltransferase EZH2 (Homo sapiens, UniProt Q15910)
Assay: Inhibition of EZH2 (unknown origin)

The chains behind the UniProt entries cited, without tags or fusion partners.
UniProt Q15910, whole entry: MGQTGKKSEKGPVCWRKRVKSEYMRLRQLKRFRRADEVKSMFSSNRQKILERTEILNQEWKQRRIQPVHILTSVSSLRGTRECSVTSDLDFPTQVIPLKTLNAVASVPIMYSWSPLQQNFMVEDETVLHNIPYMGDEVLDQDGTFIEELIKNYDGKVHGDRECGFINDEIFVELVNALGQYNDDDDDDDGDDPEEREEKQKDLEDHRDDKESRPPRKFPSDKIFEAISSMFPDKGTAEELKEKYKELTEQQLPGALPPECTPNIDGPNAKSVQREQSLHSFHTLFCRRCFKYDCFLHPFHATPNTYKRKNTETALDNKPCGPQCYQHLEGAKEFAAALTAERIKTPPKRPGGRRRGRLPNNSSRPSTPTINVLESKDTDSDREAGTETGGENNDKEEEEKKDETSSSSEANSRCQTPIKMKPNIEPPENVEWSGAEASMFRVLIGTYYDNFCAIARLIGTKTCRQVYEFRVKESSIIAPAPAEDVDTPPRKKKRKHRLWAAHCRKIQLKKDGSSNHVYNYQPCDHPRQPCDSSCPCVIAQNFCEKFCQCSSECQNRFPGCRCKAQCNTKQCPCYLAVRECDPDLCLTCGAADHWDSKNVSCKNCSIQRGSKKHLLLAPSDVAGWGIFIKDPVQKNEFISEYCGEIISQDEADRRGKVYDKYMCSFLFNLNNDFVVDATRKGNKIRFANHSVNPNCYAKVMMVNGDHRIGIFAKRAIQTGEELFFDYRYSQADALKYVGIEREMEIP

pIC50: 7.36
Structure (SMILES): Cc1cc(C)c(CNC(=O)c2cc(-c3ccc(N4CCN(C(C)C)CC4)nc3)cc3c2cnn3C(C)C)c(=O)[nH]1

— ChEMBL document CHEMBL5236580, “Blocking Non-enzymatic Functions by PROTAC-Mediated Targeted Protein Degradation” (J Med Chem, 2022)
